Experimental findings from ChEMBL document CHEMBL1156915, “Synthesis of new thienyl ring containing HIV-1 protease inhibitors: promising preliminary pharmacological evaluation against recombinant HIV-1 proteases” (J Med Chem, 2010) are described below.

In this experiment the target is Protease (Human immunodeficiency virus 1, UniProt Q9YQ12). Put plainly: Inhibition of recombinant wild type HIV1 protease assessed as hydrolysis of fluorogenic substrate.

For the compound `CC(C)(C)NC(=O)[C@@H]1C[C@@H]2CCCC[C@@H]2CN1C[C@@H](O)[C@H](Cc1ccccc1)NC(=O)[C@H](CC(N)=O)NC(=O)c1ccc2ccccc2n1` [SAQUINAVIR], the IC50 stood at 0.4 nM.
